These are literature values, as cited in US20210093715A1, “ANTI-ANGIOGENESIS THERAPY FOR THE TREATMENT OF BREAST CANCER” (Genentech, Inc., priority 2008, published 2021).

Series [1] relates to HER2 overexpressing metastatic breast cancer. Conditions: cited from earlier work.
Series [2] has the same test system. Conditions: 222 women with HER2 overexpressing metastatic breast cancer; cited from earlier work.

“trastuzumab: recombinant humanized monoclonal antibody directed against HER2”: the “Overall response rate and time to progression” value in series [1] (Herceptin + chemotherapy (paclitaxel or doxorubicin plus cyclophosphamide) vs chemotherapy alone) is given as “significantly improved”. Moreover, the overall survival entry in series [1] (addition of Herceptin to chemotherapy) is given as “prolonged overall survival”. In addition, in series [2], the confirmed complete responses result was “six”.
